Assay results: patent US20240123073A1, “NOVEL RIPK1 KINASE TARGETING PROTACS AND METHODS OF USE THEREOF” (Baylor College of Medicine, priority 2020, published 2024)

Amino acid sequences for entries named in this document (tags omitted).
UniProt Q13546, whole entry: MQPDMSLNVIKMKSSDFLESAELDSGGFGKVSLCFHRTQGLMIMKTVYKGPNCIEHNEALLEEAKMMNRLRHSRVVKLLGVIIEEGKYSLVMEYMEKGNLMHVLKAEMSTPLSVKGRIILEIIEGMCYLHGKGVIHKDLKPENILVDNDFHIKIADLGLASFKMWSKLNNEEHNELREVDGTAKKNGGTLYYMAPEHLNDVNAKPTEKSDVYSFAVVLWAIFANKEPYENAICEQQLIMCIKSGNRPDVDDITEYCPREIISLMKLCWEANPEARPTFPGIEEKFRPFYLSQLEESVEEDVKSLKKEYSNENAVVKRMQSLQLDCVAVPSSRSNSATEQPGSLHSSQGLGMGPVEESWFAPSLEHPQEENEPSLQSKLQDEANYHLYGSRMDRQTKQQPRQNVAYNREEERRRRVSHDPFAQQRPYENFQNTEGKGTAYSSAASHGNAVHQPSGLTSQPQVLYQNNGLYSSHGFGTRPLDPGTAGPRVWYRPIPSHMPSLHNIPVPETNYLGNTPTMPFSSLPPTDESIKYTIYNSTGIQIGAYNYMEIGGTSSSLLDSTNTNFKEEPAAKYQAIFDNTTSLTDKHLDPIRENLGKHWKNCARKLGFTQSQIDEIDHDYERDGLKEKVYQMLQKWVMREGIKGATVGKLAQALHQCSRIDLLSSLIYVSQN

These compounds were tested against RIPK1 (Homo sapiens, UniProt Q13546) (assay: RIPK1 degradation Western Blot assay). Conditions: read-out: Degradation Activity (DC50, concentration at which 50% of RIPK1 kinase has been degraded), human cells, 24 h incubation at 37° C.
Format: cell-based

Compound | DC50 [nM]
Cc1ncsc1-c1ccc([C@H](CC(=O)NCCCCCCCCCCC(=O)NCCCCCCCn2cc(-c3ccc4c(c3)CCN4C(=O)Cc3cccc(OC(F)(F)F)c3)c3c(N)ncnc32)NC(=O)[C@@H]2C[C@@H](O)CN2C(=O)[C@@H](NC(=O)C2(F)CC2)C(C)(C)C)cc1 | < 1000
O=C(NCCOCCOCCOCCOCCC(=O)N1CCC(C(=O)N2N=CCC2c2ccccc2)CC1)[C@@H]1NC2(CCCCC2)[C@@]2(C(=O)Nc3cc(Cl)ccc32)[C@H]1c1cccc(Cl)c1F (some centres unmarked) | 1000 to 10000
Cc1ncsc1-c1ccc(C(CC(=O)NCCOCCOCCC(=O)NCCCn2cc(-c3ccc4c(c3)CCN4C(=O)Cc3cccc(OC(F)(F)F)c3)c3c(N)ncnc32)NC(=O)C2CC(O)CN2C(=O)C(NC(=O)C2(F)CC2)C(C)(C)C)cc1 (centres unmarked) | < 1000
Cc1ncsc1-c1ccc([C@H](C)NC(=O)[C@@H]2C[C@@H](O)CN2C(=O)[C@@H](NC(=O)CCCCCCCCCCCCCCC(=O)NCCCn2cc(-c3ccc4c(c3)CCN4C(=O)Cc3cccc(OC(F)(F)F)c3)c3c(N)ncnc32)C(C)(C)C)cc1 | < 1000
Cc1ncsc1-c1ccc(C(CC(=O)NCCOCCOCCOCCC(=O)NCCCn2cc(-c3ccc4c(c3)CCN4C(=O)Cc3cccc(OC(F)(F)F)c3)c3c(N)ncnc32)NC(=O)C2CC(O)CN2C(=O)C(NC(=O)C2(F)CC2)C(C)(C)C)cc1 (centres unmarked) | < 1000
Cn1c(=O)n(C2CCC(=O)NC2=O)c2ccc(CCC(=O)NCCCCC(=O)NCCCn3cc(-c4ccc5c(c4)CCN5C(=O)Cc4cccc(OC(F)(F)F)c4)c4c(N)ncnc43)cc21 (centres unmarked) | 1000 to 10000
Cc1ncsc1-c1ccc([C@H](C)NC(=O)[C@@H]2C[C@@H](O)CN2C(=O)[C@@H](NC(=O)CCOCCOCCOCCOCCNC(=O)c2ccc(-c3cc(N4CCC(C(=O)N5N=CCC5c5ccccc5)CC4)ncn3)cc2)C(C)(C)C)cc1 (some centres unmarked) | > 10000
Cc1ncsc1-c1ccc([C@H](C)NC(=O)[C@@H]2C[C@@H](O)CN2C(=O)[C@@H](NC(=O)CCCCN2CCC(C#Cc3ccc(C(=O)NCCCn4cc(-c5ccc6c(c5)CCN6C(=O)Cc5cccc(OC(F)(F)F)c5)c5c(N)ncnc54)cc3)CC2)C(C)(C)C)cc1 | < 1000
Nc1ncnc2c1c(-c1ccc3c(c1)CCN3C(=O)Cc1cccc(OC(F)(F)F)c1)cn2CCCNC(=O)CCCCCCCCCCNC(=O)C1CCN(c2cncc(C(=O)NC3CCC(=O)NC3=O)c2)CC1 (centres unmarked) | < 1000
Nc1ncnc2c1c(-c1ccc3c(c1)CCN3C(=O)Cc1cccc(OC(F)(F)F)c1)cn2CCCCCNC(=O)CCCCCCCCCCNc1cccc2c1C(=O)N(C1CCC(=O)NC1=O)C2=O (centres unmarked) | < 1000
Nc1ncnc2c1c(-c1ccc3c(c1)CCN3C(=O)Cc1cccc(OC(F)(F)F)c1)cn2CCCNC(=O)CCCCCCCCNC(=O)CNc1ccc(C(=O)NC2CCC(=O)NC2=O)nc1 (centres unmarked) | 1000 to 10000
Nc1ncnc2c1c(-c1ccc3c(c1)CCN3C(=O)Cc1cccc(OC(F)(F)F)c1)cn2CCCNC(=O)CCCCCCCCNC(=O)CN1CCC(c2ccc(NC3CCC(=O)NC3=O)cc2)CC1 (centres unmarked) | < 1000
Cc1ncsc1-c1ccc(C(CC(=O)NCCCCCCCCCCC(=O)NCCCn2cc(-c3ccc4c(c3)CCN4C(=O)Cc3cccc(OC(F)(F)F)c3)c3c(N)ncnc32)NC(=O)C2CC(O)CN2C(=O)C(NC(=O)C2(F)CC2)C(C)(C)C)cc1 (centres unmarked) | < 1000
Cc1ncsc1-c1ccc([C@H](C)NC(=O)[C@@H]2C[C@@H](O)CN2C(=O)[C@@H](NC(=O)CCCCCCCCCCC(=O)N2CCC(C(=O)N3N=CCC3c3ccccc3)CC2)C(C)(C)C)cc1 (some centres unmarked) | > 10000
Cc1ncsc1-c1ccc([C@H](C)NC(=O)[C@@H]2C[C@@H](O)CN2C(=O)[C@@H](NC(=O)CCCCCn2cc(CCCCC(=O)NCCCn3cc(-c4ccc5c(c4)CCN5C(=O)Cc4cccc(OC(F)(F)F)c4)c4c(N)ncnc43)nn2)C(C)(C)C)cc1 | < 1000
Cc1ncsc1-c1ccc(C(CC(=O)NCCCCCCC(=O)NCCCn2cc(-c3ccc4c(c3)CCN4C(=O)Cc3cccc(OC(F)(F)F)c3)c3c(N)ncnc32)NC(=O)C2CC(O)CN2C(=O)C(NC(=O)C2(F)CC2)C(C)(C)C)cc1 (centres unmarked) | < 1000
Cc1ncsc1-c1ccc([C@H](C)NC(=O)[C@@H]2C[C@@H](O)CN2C(=O)[C@@H](NC(=O)CCCCn2cc(CCCC(=O)NCCCn3cc(-c4ccc5c(c4)CCN5C(=O)Cc4cccc(OC(F)(F)F)c4)c4c(N)ncnc43)nn2)C(C)(C)C)cc1 | < 1000
Cn1c(=O)n(C2CCC(=O)NC2=O)c2ccc(CCC(=O)NCCCCCCC(=O)NCCCn3cc(-c4ccc5c(c4)CCN5C(=O)Cc4cccc(OC(F)(F)F)c4)c4c(N)ncnc43)cc21 (centres unmarked) | < 1000
Cn1c(=O)n(C2CCC(=O)NC2=O)c2ccc(CCC(=O)NCCCCCCCCCCC(=O)NCCCn3cc(-c4ccc5c(c4)CCN5C(=O)Cc4cccc(OC(F)(F)F)c4)c4c(N)ncnc43)cc21 (centres unmarked) | < 1000
Cc1ncsc1-c1ccc([C@H](C)NC(=O)[C@@H]2C[C@@H](O)CN2C(=O)[C@@H](NC(=O)CCN2CCN(CCC(=O)NCCCn3cc(-c4ccc5c(c4)CCN5C(=O)Cc4cccc(OC(F)(F)F)c4)c4c(N)ncnc43)CC2)C(C)(C)C)cc1 | < 1000
Cc1ncsc1-c1ccc([C@H](CC(=O)NCCCCCCCCCCC(=O)NCCCCCn2cc(-c3ccc4c(c3)CCN4C(=O)Cc3cccc(OC(F)(F)F)c3)c3c(N)ncnc32)NC(=O)[C@@H]2C[C@@H](O)CN2C(=O)[C@@H](NC(=O)C2(F)CC2)C(C)(C)C)cc1 | < 1000
O=C(NCCOCCOCCC(=O)N1CCC(C(=O)N2N=CCC2c2ccccc2)CC1)[C@@H]1NC2(CCCCC2)[C@@]2(C(=O)Nc3cc(Cl)ccc32)[C@H]1c1cccc(Cl)c1F (some centres unmarked) | 1000 to 10000
CNC(=O)C[C@H](NC(=O)[C@@H]1C[C@@H](O)CN1C(=O)[C@@H](NC(=O)CCCCCCCCCCC(=O)NCCCn1cc(-c2ccc3c(c2)CCN3C(=O)Cc2cccc(OC(F)(F)F)c2)c2c(N)ncnc21)C(C)(C)C)c1ccc(-c2scnc2C)cc1 | 1000 to 10000
Cc1ncsc1-c1ccc([C@H](C)NC(=O)[C@@H]2C[C@@H](O)CN2C(=O)[C@@H](NC(=O)CCCCCCC(=O)NCCCn2cc(-c3ccc4c(c3)CCN4C(=O)Cc3cccc(OC(F)(F)F)c3)c3c(N)ncnc32)C(C)(C)C)cc1 | < 1000
Cc1ncsc1-c1ccc([C@H](C)NC(=O)[C@@H]2C[C@@H](O)CN2C(=O)[C@@H](NC(=O)CCCCCCCCCCCCC(=O)NCCCn2cc(-c3ccc4c(c3)CCN4C(=O)Cc3cccc(OC(F)(F)F)c3)c3c(N)ncnc32)C(C)(C)C)cc1 | < 1000
Cc1ncsc1-c1ccc([C@H](C)NC(=O)[C@@H]2C[C@@H](O)CN2C(=O)[C@@H](NC(=O)CCCCC(=O)NCCCn2cc(-c3ccc4c(c3)CCN4C(=O)Cc3cccc(OC(F)(F)F)c3)c3c(N)ncnc32)C(C)(C)C)cc1 | 1000 to 10000
Nc1ncnc2c1c(-c1ccc3c(c1)CCN3C(=O)Cc1cccc(OC(F)(F)F)c1)cn2CCCNC(=O)CCCCCCCCNC(=O)C1CCN(c2ccc(C(=O)NC3CCC(=O)NC3=O)cn2)CC1 (centres unmarked) | 1000 to 10000
Nc1ncnc2c1c(-c1ccc3c(c1)CCN3C(=O)Cc1cccc(OC(F)(F)F)c1)cn2CCCNC(=O)CCCCCCCCCCNc1cc2c(cc1F)C(=O)N(C1CCC(=O)NC1=O)C2=O (centres unmarked) | < 1000
Cc1ncsc1-c1ccc([C@H](C)NC(=O)[C@@H]2C[C@@H](O)CN2C(=O)[C@@H](NC(=O)CCOCCOCCC(=O)NCCCn2cc(-c3ccc4c(c3)CCN4C(=O)Cc3cccc(OC(F)(F)F)c3)c3c(N)ncnc32)C(C)(C)C)cc1 | < 1000
